CDK5 inh = CDK5/p35 (human) kinase inhibition. Q00535+Q15078. Recombinant CDK5/p35, ADP-Glo luminescence, 60 min. inhibition, % at 10 µM. 0.01% of 330,000 active. AID 488839;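 active means highest replicate inhibition of at least 50% and at least 75% of replicates reaching 50%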
Rtt109 HAT inh = inhibitors of Candida albicans Rtt109/Vps75 histone acetyltransferase | Q5AAJ8 | purified Rtt109/Vps75, ThioGlo CoA-SH fluorescence, 4 h | inhibition, % at 34.9 µM | 0.16% of 330,000 active | AID 540336;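 active means inhibition of at least 50% in every replicate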
Statin myotox sup = suppressors of simvastatin-induced myotoxicity in C2C12 myotubes; ATP luminescence, 48 h; scaled: DMSO 0, geranylgeraniol control 100; AID 602340; 0.78% of 330,000 active; rescue of ATP level, % at 7.49 µM;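 active means mean ATP rescue above about 67%, or every replicate alone reaching that limit, limit read from the data, passing the limit was not always enough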;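 further: myotubes were challenged with 10 µM simvastatin during compound exposure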
UUG fidelity = yeast start codon fidelity modulation. S. cerevisiae UUG-firefly luciferase reporter, luminescence/redox ratio. activity score, % at 18.7 µM. 0.13% of 350,000 active;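 active means replicate mean at a twofold rise or more, about +100% in these data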;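 further: firefly luciferase made from a UUG start codon reports start codon fidelity; reporter light over untreated wells divided by growth signal over untreated wells; some hits fall short of that in this replicate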
Cneo AK release = causes C. neoformans cell lysis; adenylate kinase release luminescence, 4 h; normalised: neutral wells 0, clomiphene wells 100; lysis activity, % at 15 µM; 0.2% of 360,000 active; AID 651654;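 active means mean lysis activity across replicates of at least 80%, whatever share of replicates individually reach that level; inactive means mean lysis activity below 80%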
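Material – log-phase Cryptococcus neoformans yeast cells · Input – 5 × 10^6 yeast cells/mL · Medium – fresh YPD growth medium · Doses – single compound concentration per well · Timing – static 4 h at 37 °C with compound, 1 h detection · Detection – adenylate kinase release luminescence · Read-out – signal increase indicating cell lysis · Control set – Clomiphene as positive lysis control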
Large screens that a line does not name were inactive. Compounds with a hit are over-represented: about 1% of the library has one in this group of screens.

COCCOC(=O)N1C(=O)[C@@]2(c3ccccc31)[C@H](c1ccc(OCCO)cc1)N1[C@H](c3ccccc3)[C@H](c3ccccc3)OC(=O)[C@H]1[C@@H]2C(=O)N1CCN(c2ncccn2)CC1	none (no result: CDK5 inh, Rtt109 HAT inh, Statin myotox sup)
C[C@@H]1CN([C@@H](C)CO)C(=O)c2cc(C#CCN(C)C)cnc2O[C@H]1CN(C)C(=O)NC1CCCC1	none (no result: CDK5 inh, Rtt109 HAT inh)
CCC(=O)N(C)C[C@@H]1Oc2ncc(C#CC(C)(C)O)cc2C(=O)N([C@H](C)CO)C[C@H]1C	none (no result: CDK5 inh, Rtt109 HAT inh)
CCC(=O)/C=C1/Sc2ccccc2N1CC	Statin myotox sup 112
Cc1noc(C)c1NC(=O)N(C)C[C@H]1Oc2ccc(NC(=O)CCCCCC(=O)Nc3ccccc3N)cc2CC(=O)N([C@@H](C)CO)C[C@@H]1C	none (no result: CDK5 inh, Rtt109 HAT inh)
O=C(COC(=O)C1CC2C=CC1C2)NCc1ccco1 (configuration not stated)	Statin myotox sup 101
O=C(Nc1ccc2nn(-c3ccccc3)nc2c1)c1cccnc1	Statin myotox sup 130
O=C(Nc1ccc2nn(-c3ccc(F)cc3)nc2c1)c1cccnc1	none (no result: Statin myotox sup, UUG fidelity, Cneo AK release)
C[C@@H]1CN([C@@H](C)CO)C(=O)c2cc(NC(=O)NC3CCCCC3)ccc2O[C@@H]1CN(C)Cc1ccc(Oc2ccccc2)cc1	none (no result: CDK5 inh, Rtt109 HAT inh)
O=C(NC1CCCC1)C1CCN(C(=O)NCc2ccccc2)CC1	none (no result: Statin myotox sup, UUG fidelity, Cneo AK release)
O=C(NC1CCCCC1)C1CCN(C(=O)NCc2ccccc2)CC1	Statin myotox sup 103
Nc1nnc(-c2ccccc2)c(-c2ccccc2)n1	Statin myotox sup 121
CC(C)CC#Cc1cnc2c(c1)C(=O)N([C@H](C)CO)C[C@@H](C)[C@H](CN(C)C(=O)c1ccc3c(c1)OCO3)O2	none (no result: CDK5 inh, Rtt109 HAT inh)
COCCNC(=O)C1=C(N)C(C(=O)Nc2ccc(C)c(S(=O)(=O)N3CCCCC3)c2)SC1=Nc1ccc(C)cc1C (configuration not stated)	Rtt109 HAT inh 58
C[C@H](O)C#Cc1cnc2c(c1)C(=O)N([C@@H](C)CO)C[C@@H](C)[C@@H](CN(C)C(=O)Nc1ccc(F)cc1)O2	none (no result: CDK5 inh, Rtt109 HAT inh)
Cc1cccc(N2C(=O)C(Cl)=C(N3CCOCC3)C2=O)c1	Rtt109 HAT inh 113
C[C@H](O)C#Cc1cnc2c(c1)C(=O)N([C@H](C)CO)C[C@H](C)[C@@H](CN(C)C(=O)c1ccncc1)O2	none (no result: CDK5 inh, Rtt109 HAT inh)
Cc1cccc2c1cnn2C(=O)Nc1ccc(Br)cc1F	Statin myotox sup 99
COc1cccc(N=Nc2c(=O)[nH]n3c(=O)cc(C)[nH]c23)c1	Statin myotox sup 94 (no result: UUG fidelity, Cneo AK release)
COc1ccccc1CN1CC[C@H]2[C@H](CO)Nc3ccc(C#Cc4ccccc4)cc3[C@H]21	Cneo AK release 115 (no result: CDK5 inh, Rtt109 HAT inh)
COc1cc(OC)cc(-c2nc(N)n[nH]2)c1	Statin myotox sup 106
COc1ccc(-c2nc(N)n[nH]2)cc1	none
COC(=O)[C@H]1[C@H](CO)[C@H]2Cn3c(ccc(-c4ccccc4F)c3=O)[C@H]2N1CC1CCCC1	none (no result: CDK5 inh, Rtt109 HAT inh, UUG fidelity)
COc1ccc(CN(C)C[C@@H]2OCCCC[C@@H](C)Oc3ccc(NC(=O)c4ccccc4)cc3C(=O)N([C@H](C)CO)C[C@@H]2C)cc1	Cneo AK release 86 (no result: CDK5 inh, Rtt109 HAT inh, Statin myotox sup)
CC(C)NC(=O)N(C)C[C@@H]1OCCCC[C@H](C)Oc2ccc(NC(=O)c3ccccc3)cc2C(=O)N([C@H](C)CO)C[C@H]1C	Cneo AK release 91 (no result: CDK5 inh, Rtt109 HAT inh, Statin myotox sup, UUG fidelity)
CC(C)NC(=O)N(C)C[C@H]1OCCCC[C@@H](C)Oc2ccc(NC(=O)c3ccccc3)cc2C(=O)N([C@@H](C)CO)C[C@@H]1C	Cneo AK release 91 (no result: CDK5 inh, Rtt109 HAT inh, Statin myotox sup, UUG fidelity)
O=C(C[C@H]1CC[C@@H]2[C@H](COC[C@H](O)CN2C(=O)c2ccncc2)O1)NCc1ccc(-c2ccccc2)cc1	none (no result: CDK5 inh, Rtt109 HAT inh)
CC(=O)N[C@@H]1C=C[C@H](CC(=O)NCc2ccc(Cl)cc2)O[C@H]1CO	none (no result: CDK5 inh, Rtt109 HAT inh)
COc1cc(C(=O)Nc2nnc(-c3sccc3C)s2)cc(OC)c1OC	Statin myotox sup 98
COC(=O)C[C@H]1C=C[C@@H](NS(=O)(=O)c2ccc(OC)cc2)[C@@H](CO)O1	none (no result: CDK5 inh, Rtt109 HAT inh)
O=C(NC[C@H]1[C@@H](c2ccccc2)[C@@H](CO)N1C(=O)C1CCC1)NC1CCCC1	Cneo AK release 97 (no result: CDK5 inh, Rtt109 HAT inh)
O=C(NC[C@H]1[C@@H](c2ccccc2)[C@@H](CO)N1C(=O)Cc1cccnc1)C1CCC1	none (no result: CDK5 inh, Rtt109 HAT inh)
O=C(NC[C@H]1[C@H](c2ccccc2)[C@H](CO)N1C(=O)Cc1cccnc1)C1CCC1	Cneo AK release 81 (no result: CDK5 inh, Rtt109 HAT inh)
O=C(NC[C@@H]1[C@H](c2ccccc2)[C@@H](CO)N1C(=O)C1CCC1)NC1CCCC1	none (no result: CDK5 inh, Rtt109 HAT inh)

High-throughput results deposited in PubChem by Broad Institute.
